# Test results from PubChem BioAssay AID483 (Columbia University Molecular Screening Center, 2006).
# This is a selection; strong and weak results do not stand in their true shares. Active and inactive are the calls of the source.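 Rule for the calls: active = visual image review flags a hit and inhibition of aggregation exceeds 20%; inconclusive = visual hit but inhibition at or below 20%; inactive = no hit on visual image review.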
# Assay: inhibitors of mutant huntingtin aggregation, primary screen, imaging, exon1htt(103Q)mCFP cells, high-content imaging (AID 483);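 note: compound exposure lasted 3 days before fixation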
# Settings: exon1htt(103Q)mCFP cell line, aggregate imaging; at 2 µM; hits give high values
row,Compound,inhibition of aggregation
1,Cc1ccc(C)c(NP(C)(=O)Oc2ccccc2)c1 (stereo not given),inactive: -25.4%
2,CP(=S)(Nn1cnnc1)Oc1ccccc1 (stereo not given),inactive: 10.9%
3,CP(=O)(Nc1ccccn1)Oc1ccccc1 (stereo not given),inactive: 17.3%
4,CN(C)CCOC(=O)C(O)(c1ccccc1)C1CCCCC1 (stereo not given),inactive: -4.8%
5,CP(=O)(Nc1ccc2c(c1)OCCO2)Oc1ccccc1 (stereo not given),inactive: -9.8%
